Drawing on patent US20230015478A1, “GLP-1 RECEPTOR AGONISTS HAVING IMPROVED PHARMACOLOGICAL AND DRUG DELIVERY PROPERTIES” (priority 2021, published 2023), this text covers EC50 for two substances.

By UniProt entry, the sequences of proteins in these tests, tags left out. Residues count along the entry.
UniProt P43220, 24-463: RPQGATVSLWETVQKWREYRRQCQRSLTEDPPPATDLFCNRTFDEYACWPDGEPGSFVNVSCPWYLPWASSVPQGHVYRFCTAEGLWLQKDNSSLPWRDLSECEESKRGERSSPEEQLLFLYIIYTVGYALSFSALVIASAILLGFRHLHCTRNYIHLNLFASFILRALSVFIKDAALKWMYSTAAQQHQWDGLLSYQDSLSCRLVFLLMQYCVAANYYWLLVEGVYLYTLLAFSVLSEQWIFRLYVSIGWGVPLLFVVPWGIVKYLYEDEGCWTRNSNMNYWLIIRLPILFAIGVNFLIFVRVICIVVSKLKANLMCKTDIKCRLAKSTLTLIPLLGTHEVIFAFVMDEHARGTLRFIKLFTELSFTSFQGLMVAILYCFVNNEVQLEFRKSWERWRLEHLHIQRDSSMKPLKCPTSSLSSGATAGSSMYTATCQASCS

The assay has as its target T1, hGLP1 receptor (Homo sapiens, UniProt P43220).
T1 construct: expressed in transfected cells; host or cells: HEK (human embryonic kidney) cells co-expressing hGLP1 receptor and CRE-Luciferase
As to the kind of experiment: cAMP HTRF agonist assay in HEK cells co-expressing hGLP1 receptor and CRE-Luciferase. It is filed as cell-based. As to conditions: Table 6. (In TR-FRET formats the signal depends on donor and acceptor labels being close together.)

Like-named read-outs stand apart in the source and are kept apart here.

As to “H2N-His-Aib-Glu-Gly-Thr-α-MePhe(2-F)-Thr-Ser-Asp-Bip-Bip-C(O)NH-RY7 [4-45]”, the EC50 (read-out: cAMP EC50, nM (0.1% albumin), 0.1% albumin) turned out to be 100 nM.
On to “H2N-His-α-MePro-Glu-Gly-Thr-α-MePhe(2F)-Thr-Ser-Asp-α-MeBip-Bip-C(O)NH2 [4-72-i1]”, for which the concentration for a half-maximal effect (EC50) (cells marked (0% albumin), read-out: cAMP EC50, nM (0% albumin)) was 0.2 nM.

Broadly, the EC50 is the concentration needed to bring the measured effect to its halfway point.
